Values of other authors, collected in patent US20210214399A1, “PH LOW INSERTION PEPTIDE AND COMPOSITION THEREOF” (priority 2017, published 2021).

Columns and labels:
[1] = background art, compared with wild-type pHLIP; cited from earlier work
[2] = aqueous solution of neutral pH; cited from earlier work

Sequence | elimination rate in the blood [1] | concentration of the pHLIP monomer [2]
ACEEQNPWARYLEWLFPTETLLLEL [var7] | accelerates the elimination rate in the blood | 
ACEQNPIYWARYADWLFTTPLLLLDLALLVDADEGT [WT] |  | less than 30 μg/ml
